Experimental data published in patent US4122189A, “Medicine for renal diseases” (priority 1976, dated 1978).

Experiments:
Aminonucleoside nephrose = test: Therapy for Aminonucleoside nephrose (urine and blood biochemical observations); format: in vivo, SD type male rats; details: 1000 mg/kg/day oral, 10 days; normal 0.68, renal disease group 0.16; significance *
Method: SD type male rats (weight about 100 g) were fed in each individual room of a metabolism cage under the free water and feed supply.
The rats were classified as the normal group for eight rats, the renal disease group for eight rats and the therapy group for eight rats.
0.3% Aminoucleoside aqueous solution (hereinafter referring to as AN) was administrated by intramuscular injection at a dose of 0.3 ml per 100 g of the rat.
The administration was continued from the 1st day to the 14th day at one time per day.
For the therapy group, methyl methionine sulfonium chloride was administrated by the oral dose at a dose of 1000 mg/kg (in a form of 1.0 ml per 100 g of the weight of rat) at one time per day for 10 days with AN from 5th day when the increase of the amount of urine protein was found.
The data in Tables are average value for eight rats in each group.
The difference between the renal disease group and the therapy group was significant. The symbol * means the existence of significant difference in 5% of the level of significance and the symbol (*) means the existence of significant difference in 5 to 1% of the level of significance. The symbol -- means non-significant difference.

Toxicity test (LD50) = test: Toxicity test (LD50); parameters: species or system ddY type mice; details: mouse, in vivo, LD50
Method: (§1) Methyl methionine sulfonium chloride was dissolved in each distilled water at various concentration to give 0.2 ml per 10 g of mouse.
(§2) The test was carried out by the oral dose and the intraperitoneal injection of each solution in 10 ddY type male mice and 10 ddY femal mice. The results after 72 hours from the administration were observed. Probit analysis was used for statistical treatment of mortality.

mouse = test: Toxicity test (LD50); parameters: species or system ddY type mice; details: in vivo, 72 h
Method: as §1, §2

SMILES: C[S+](C)CCC(N)C(=O)O (centres unmarked) [Methyl methionine sulfonium chloride]
- Serum Albumin/Globulin ratio (Aminonucleoside nephrose): 0.41
- LD50 at 72 h (Toxicity test (LD50); ip): 8140 mg/kg
- LD50 at 72 h (Toxicity test (LD50); po): 11900 mg/kg
- LD50 (mouse; ip): 7910 mg/kg
- LD50 (mouse; po): 11255 mg/kg
